# Measured values from patent publication US20170044230A1 (USTAV ORGANICKE CHEMIE A BIOCHEMIE AV CR, V.V.I., priority 2014, published 2017).
# By UniProt entry, the sequences of proteins in these tests, tags left out.
# UniProt Q92847, whole entry: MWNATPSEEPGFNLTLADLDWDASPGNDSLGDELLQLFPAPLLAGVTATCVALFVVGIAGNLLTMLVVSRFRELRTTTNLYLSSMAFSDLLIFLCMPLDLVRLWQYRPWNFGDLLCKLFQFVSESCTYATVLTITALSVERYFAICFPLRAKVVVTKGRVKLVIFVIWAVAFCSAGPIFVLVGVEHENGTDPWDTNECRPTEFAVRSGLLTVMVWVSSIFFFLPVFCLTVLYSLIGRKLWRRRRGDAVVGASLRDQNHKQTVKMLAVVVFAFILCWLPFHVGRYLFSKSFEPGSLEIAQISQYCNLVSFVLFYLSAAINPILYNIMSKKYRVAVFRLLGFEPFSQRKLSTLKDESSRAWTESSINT
# Molecular target: human GHS-R1a receptor (growth hormone secretagogue receptor 1a) (human) (UniProt Q92847)
# Experiment: saturation radioligand binding, membranes with human GHS-R1a
substance,measurement,value
^125I-ghrelin (peptide),Kd,0.194 nM
